Measured values taken from patent US10683278B2 (JINAN UNIVERSITY, priority 2015, dated 2020).

Assay: In vivo pharmacokinetic and bioavailability experiments of rats
Conditions: SD rats; hydrochlorides; in words
Description: Pharmacokinetic and bioavailability experiments of rats. SD rats were administered orally (25 mg/kg) and intravenously (2.5 to 5 mg/kg) at a single dose. Animal blood samples were taken at appropriate time points after administration, heparin was added as anticoagulant, and same were centrifuged at 8000 rpm/min for 6 minutes, the supernatant was then taken and stored at −20° C. for HPLC-MS analysis. The proteins in blood samples were precipitated with acetonitrile at 12000 rpm for 10 min, and the supernatant was used for HPCL-MS analysis. Data were fit using DAS2.0 to obtain compartmental model and non-compartmental model parameters, respectively. The oral bioavailability of each compound was calculated according to AUC data.

- pharmacokinetic parameter, overall judgement: appropriate pharmacokinetic parameter
SMILES: CCc1ccc2c(c1)c(=O)c(C(=O)Nc1ccc(Oc3ncnc4cc(OC)c(OC)cc34)c(F)c1)c(C)n2C [TL4800191, N-(4-(6,7-dimethoxyquinazolin-4-yloxy)-3-fluorophenyl)-6-ethyl-1,2-dimethyl-4-oxo-1,4-dihydroquinoline-3-carboxamide]
